Test results published in PMC11269945, “HTRF-based assay for detection of mono-ADP-ribosyl hydrolyzing macrodomains and inhibitor screening” (iScience, 2024).

Protein sequences, listed by entry. Tags and fused reporters are not part of them. Residues count along the entry.
UniProt P0C6X1, 1270-1437 limits assumed: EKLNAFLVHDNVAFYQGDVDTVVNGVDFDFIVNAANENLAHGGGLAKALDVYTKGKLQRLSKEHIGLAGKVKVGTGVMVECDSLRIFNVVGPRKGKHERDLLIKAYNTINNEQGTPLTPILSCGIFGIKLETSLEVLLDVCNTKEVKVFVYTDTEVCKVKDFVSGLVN

Target: HCoV-229e macrodomain (Human coronavirus 229E, UniProt P0C6X1)
Assay: DeMAR HTRF deMARylation assay, wash protocol
Assay type: biochemical
Conditions: read-out: IC50 HCoV-229e; wash setup, 2 h, 80 nM macrodomain, 6 nM immobilized Tb-PARP10cat

**Q.** How did the IC50 turn out when O=C(Nc1ccccc1)Nc1ccc(C(=O)NC2c3cccc(O)c3CC2C(=O)O)cc1 (stereo not shown) [Z8539_0023] was run?
**A.** Its IC50 is greater than 667 µM.
